# Results reported in BindingDB's records for PubMed 11454918.
# Protein sequences, listed by entry. Tags and fused reporters are not part of them.
# UniProt P23977, whole entry: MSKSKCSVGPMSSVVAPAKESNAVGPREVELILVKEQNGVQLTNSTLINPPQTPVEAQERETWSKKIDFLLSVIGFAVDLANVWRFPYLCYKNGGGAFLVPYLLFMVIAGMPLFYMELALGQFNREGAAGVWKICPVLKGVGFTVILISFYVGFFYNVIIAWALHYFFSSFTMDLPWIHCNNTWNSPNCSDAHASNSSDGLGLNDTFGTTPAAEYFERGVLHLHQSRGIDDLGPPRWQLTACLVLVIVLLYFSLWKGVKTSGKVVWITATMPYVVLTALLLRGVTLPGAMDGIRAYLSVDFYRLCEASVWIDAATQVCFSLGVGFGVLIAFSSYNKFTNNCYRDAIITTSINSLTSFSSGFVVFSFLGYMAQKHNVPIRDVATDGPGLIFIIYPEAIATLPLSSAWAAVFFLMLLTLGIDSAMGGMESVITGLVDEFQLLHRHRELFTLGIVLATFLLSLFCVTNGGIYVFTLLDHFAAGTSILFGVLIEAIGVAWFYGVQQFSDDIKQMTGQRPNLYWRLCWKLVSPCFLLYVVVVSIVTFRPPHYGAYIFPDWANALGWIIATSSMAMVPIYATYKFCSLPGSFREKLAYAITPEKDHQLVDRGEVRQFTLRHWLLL
# Molecular target: Sodium-dependent dopamine transporter (Rattus norvegicus, UniProt P23977)
smiles,measurement,value
CN(C)CCCC1(c2ccc(F)cc2)OCc2cc(C#N)ccc21 (stereo unspecified),Ki,> 10 µM
